Values quoted from earlier work in patent US4783530A, “8-arylxanthines” (priority 1987, dated 1988).

System: adenosine receptors
Conditions: cited from earlier work

| Compound | adenosine antagonism (in words) | degree of selectivity (in words) |
| --- | --- | --- |
| Cn1c(=O)c2[nH]cnc2n(C)c1=O [aminophylline] | weak nonselective adenosine antagonists |  |
| Cn1c(=O)c2[nH]cnc2n(C)c1=O [theophylline] |  | do not show any remarkable degree of selectivity |
